Assay results published in ChEMBL document CHEMBL2380195 (J Med Chem, 2013).
Activity calls are given as the source filed them. The rule behind the calls is not given here.

Amino acid sequences for entries named in this document (tags omitted).
UniProt P23219, whole entry, looked up: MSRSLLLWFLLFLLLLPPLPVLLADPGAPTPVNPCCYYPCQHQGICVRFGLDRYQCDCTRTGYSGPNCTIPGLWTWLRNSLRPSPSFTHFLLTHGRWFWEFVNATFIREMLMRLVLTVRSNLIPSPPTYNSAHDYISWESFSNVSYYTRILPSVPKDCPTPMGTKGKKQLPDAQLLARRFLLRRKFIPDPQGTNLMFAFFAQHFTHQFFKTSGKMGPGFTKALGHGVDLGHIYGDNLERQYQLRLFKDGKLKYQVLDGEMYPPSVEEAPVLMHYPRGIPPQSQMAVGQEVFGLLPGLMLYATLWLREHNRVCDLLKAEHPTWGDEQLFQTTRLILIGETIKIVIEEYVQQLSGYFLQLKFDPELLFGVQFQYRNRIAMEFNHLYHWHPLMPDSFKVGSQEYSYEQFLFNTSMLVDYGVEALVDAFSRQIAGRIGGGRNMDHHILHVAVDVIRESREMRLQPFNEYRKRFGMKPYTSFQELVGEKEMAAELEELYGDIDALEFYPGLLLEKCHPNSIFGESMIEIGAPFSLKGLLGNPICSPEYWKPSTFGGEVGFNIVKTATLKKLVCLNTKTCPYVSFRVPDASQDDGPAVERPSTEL

Tests used:
[1] = target: COX-1/COX-2 (Homo sapiens) (UniProt P35354+P23219); experiment: Selectivity ratio of IC50 for COX-2 in human whole blood to COX-1 in human whole blood; format: tissue-based
[2] = target: T1, Prostaglandin G/H synthase 1 (Homo sapiens, UniProt P23219); experiment: Inhibition of COX-1 (unknown origin) in platelet rich plasma assessed as inhibition of arachidonic acid-induced platelet aggregation at 30 uM incubated for 5 mins prior to arachidonic acid challenge measured for 5 mins by aggregometric analysis relative to vehicle-treated control
[3] = target: Prostaglandin G/H synthase 2 (Homo sapiens) (UniProt P35354); experiment: Inhibition of COX-2 in human MDA-MB-231 cells assessed as inhibition of arachidonic acid-induced PGE2 formation at 100 uM incubated for 30 mins prior to arachidonic acid challenge measured after 30 mins by radioimmunoassay relative to vehicle-treated control
[4] = target: T1, Prostaglandin G/H synthase 1; experiment: Inhibition of COX-1 in human washed platelet assessed as rightward shift in 10 uM arachidonic acid-induced TXB2 formation at 0.01 to 100 uM incubated for 25 mins prior to arachidonic acid challenge measured after 30 mins by radioimmunoassay
[5] = target: T1, Prostaglandin G/H synthase 1; experiment: Inhibition of COX-1 (unknown origin) in platelet rich plasma assessed as inhibition of collagen-induced platelet aggregation at 30 uM incubated for 5 mins prior to collagen challenge measured for 5 mins by aggregometric analysis relative to vehicle-treated control
[6] = target: T1, Prostaglandin G/H synthase 1; experiment: Inhibition of COX-1 in human THP1 cells assessed as inhibition of arachidonic acid-induced TXB2 formation at 100 uM incubated for 30 mins prior to arachidonic acid challenge measured after 30 mins by radioimmunoassay relative to vehicle-treated control; format: cell-based; conditions: THP-1
[7] = target: Prostaglandin G/H synthase 2 (Homo sapiens) (UniProt P35354); experiment: Reversible inhibition of COX-2 in human MDA-MB-231 cells assessed as inhibition of arachidonic acid-induced PGE2 formation at 100 uM incubated for 30 mins followed by compound washout measured 30 mins post arachidonic acid challenge by radioimmunoassay
[8] = target: T1, Prostaglandin G/H synthase 1; experiment: Inhibition of COX-1 (unknown origin) in platelet rich plasma assessed as inhibition of arachidonic acid-induced platelet aggregation at 10 uM incubated for 5 mins prior to arachidonic acid challenge measured for 5 mins by aggregometric analysis relative to vehicle-treated control
[9] = target: T1, Prostaglandin G/H synthase 1; experiment: Reversible inhibition of COX-1 in human THP1 cells assessed as inhibition of arachidonic acid-induced TXB2 formation at 100 uM incubated for 30 mins followed by compound washout measured 30 mins post arachidonic acid challenge by radioimmunoassay; format: cell-based; conditions: THP-1

`Cc1onc(-c2ccc(Cl)o2)c1-c1ccccc1` was tested. Which Ratio IC50 [1] did it give?
Its Ratio IC50 is over 200.

And the inhibition [2]?
The inhibition was 97%.

And the inhibition [3]?
The inhibition was 70%.

And the inhibition [4]?
Its inhibition is “Active”.

What about the inhibition [5] of the same molecule?
Its inhibition is 64.6%.

What about the inhibition [6] of the same molecule?
The inhibition was over 90%.

What about the inhibition [7] of the same molecule?
The inhibition was “Active”.

What about the inhibition [8] of the same molecule?
Its inhibition is “inactive”.

What about the inhibition [9] of the same molecule?
The inhibition was “Active”.
